Data on nine compounds can be found in patent US9492460B2, “Carbazole compounds useful as bromodomain inhibitors” (Bristol-Myers Squibb Company, priority 2013, dated 2016).

Where only a bound is given, the exact number is not on record here.

The target in this test is bromodomain BRD4 (44-168), BRD4 (333-460), and BRD4 (1-477 or 44-460) (Homo sapiens, UniProt O60885). Kind of test: Time Resolved Fluorescence Resonance Energy Transfer (TR-FRET) binding assay. As to conditions: read-out: FRET BRD4 IC50; one of the FRET assays described. (Time-resolved FRET reads energy transfer from a long-lived donor to a nearby acceptor.)
With `Cc1noc(C)c1-c1cc(C(N)=O)c2c3ccc(C(C)(C)O)cc3n(C(c3c(F)cccc3F)C3CCOCC3)c2c1` (single isomer, unassigned), the IC50 is below 50 nM.

On to `Cc1noc(C)c1-c1cc(C(N)=O)c2c3ccc(C(C)(C)O)cc3n(C(CCC(F)(F)F)c3ccccn3)c2c1` (single isomer, unassigned), for which the IC50 is below 50 nM. As for `Cc1noc(C)c1-c1ccc2c3cc(C(=O)N4C[C@@H](C)O[C@@H](C)C4)ccc3n(CCc3ccccc3)c2c1` (relative stereo), the figure is below 500 nM; as for `Cc1noc(C)c1-c1cc(C(N)=O)c2c3ccc(C(C)(C)O)cc3n(C(c3ccccc3F)C3CCOCC3)c2c1` (single isomer, unassigned), below 50 nM. To `Cc1noc(C)c1-c1cc(C(N)=O)c2c3ccc(C(C)(C)O)cc3n(C(CCC(F)(F)F)c3ccccc3C(F)(F)F)c2c1` (single isomer, unassigned) belongs below 50 nM; to `Cc1noc(C)c1-c1cc(C(N)=O)c2c3ccc(C(C)(C)O)cc3n(C(c3ccc(F)cc3F)C3CCOCC3)c2c1` (single isomer, unassigned), below 50 nM; to `Cc1noc(C)c1-c1cc(C(N)=O)c2c3ccc(C(C)(C)O)cc3n(C(c3c(F)cc(F)cc3F)C3CCOCC3)c2c1` (single isomer, unassigned), below 50 nM. On to `Cc1noc(C)c1-c1cc(C(N)=O)c2c3ccc(C(C)(C)O)cc3n(C(CCC(F)(F)F)CCC(F)(F)F)c2c1`, for which the IC50 is below 50 nM. For the compound `Cc1noc(C)c1-c1cc(C(N)=O)c2c3ccc(C(C)(C)O)cc3n(C(CCC(F)(F)F)c3ccccc3Cl)c2c1` (single isomer, unassigned), the IC50 is below 50 nM.

As usually defined, the IC50 is the concentration that inhibits the measured activity by half.
